Antibody variant affinities, Ab-14 light chain, assay B

From the AlphaSeq antibody data of Li et al. 2023 (doi:10.1038/s41467-023-39022-2), copy in the FLAb collection.

Binding partner: SARS-CoV-2 spike HR2 peptide, sequence PDVDLGDISGINAS.

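Designed CDR sequences, proposed from the first random library and measured here. Several design methods are mixed in this list. The scFvs were displayed on barcoded MATa yeast, the peptide on MATalpha yeast. After mating in shaken culture at 30 °C for 16 h, diploids were selected and their barcode pairs sequenced. The ratio of observed to expected reads was calibrated, replicate by replicate, on BCL2-family standards whose Kd was known from biolayer interferometry. The assay was run in six technical replicates.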

Each scFv is VH, three GGGGS repeats, VL, as in the parent Ab-14, and differs from it in the CDRs of the light chain only.
VH: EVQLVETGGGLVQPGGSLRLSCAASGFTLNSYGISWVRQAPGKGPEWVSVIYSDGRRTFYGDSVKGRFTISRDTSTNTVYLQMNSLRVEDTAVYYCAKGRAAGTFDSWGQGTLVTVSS
VL: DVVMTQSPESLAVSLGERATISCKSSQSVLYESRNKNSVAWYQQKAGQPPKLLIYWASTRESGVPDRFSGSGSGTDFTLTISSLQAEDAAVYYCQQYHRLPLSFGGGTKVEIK

Sequences are complete VL domains. Values are apparent Kd, the geometric mean of the replicates that gave a signal; lower means stronger binding. Of ten entries with the parent sequence, four were seen in most replicates (averages 2.2 nM to 240 nM), three in one and three in none, so single entries are noisy. A sequence measured in both rounds can read differently, since the two assays cover different ranges. As a blank, each scFv also met three strains without target: over all light chain designs, 4% of these pairings were detected, typically at 430 nM and seldom below 38 nM. The authors averaged sequences with at least three values out of six and counted those with two or fewer as poor binders.

VL,apparent Kd,seen in
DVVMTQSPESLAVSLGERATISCKQSQSVLPEGRNKNSVAWYQQKAGQPPKLLIYWASTRESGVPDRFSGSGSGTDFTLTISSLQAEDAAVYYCQQYHRLPLSFGGGTKVEIK,190 nM,3/6
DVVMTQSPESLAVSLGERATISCKMSQSVLYESRNKNNVAWYQQKAGQPPKLLIYGASTRESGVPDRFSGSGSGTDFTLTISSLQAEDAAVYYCQQYHRLPLSFGGGTKVEIK,290 pM,6/6
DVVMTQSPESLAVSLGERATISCKCAQGWLYESRNKNNVAWYQQKAGQPPKLLIYNASQREHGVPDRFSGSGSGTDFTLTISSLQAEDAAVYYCQQYHRLPLSFGGGTKVEIK,180 pM,6/6
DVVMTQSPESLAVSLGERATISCNITGMVNSKGTTTKNIAWYQQKAGQPPKLLIYEAEFRCGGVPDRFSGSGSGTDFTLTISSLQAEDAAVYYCQQYSRLPLSFGGGTKVEIK,78 nM,6/6
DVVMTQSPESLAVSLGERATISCKLGNQEQMNGMMTQNVAWYQQKAGQPPKLLIYAMNTVVDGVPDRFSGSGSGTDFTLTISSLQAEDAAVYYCQEYHRLPLIFGGGTKVEIK,1.4 nM,6/6
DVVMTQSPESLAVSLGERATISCTISQMFLGESRNRQSVAWYQQKAGQPPKLLIYQASTRESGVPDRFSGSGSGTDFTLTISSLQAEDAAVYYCQSYDRLPLSFGGGTKVEIK,5.3 nM,6/6
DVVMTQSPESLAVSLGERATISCKLQFLALQLQRNKNSVAWYQQKAGQPPKLLIYSASTRESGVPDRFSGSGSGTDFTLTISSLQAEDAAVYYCQQYHRLPLSFGGGTKVEIK,47 nM,6/6
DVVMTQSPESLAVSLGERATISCKLQMQAEMESRNKNSVAWYQQKAGQPPKLLIYQANTRESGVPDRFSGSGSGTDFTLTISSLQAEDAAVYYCQQYHRLPLSFGGGTKVEIK,430 pM,6/6
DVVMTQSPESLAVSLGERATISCESSQSSLYESRNKNSVAWYQQKAGQPPKLLIYYASTRESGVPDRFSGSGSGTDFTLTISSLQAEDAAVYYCQQYHRLPLSFGGGTKVEIK,77 nM,6/6
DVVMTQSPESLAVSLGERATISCKIQHLTYFENIGEWSVAWYQQKAGQPPKLLIYDANTSVLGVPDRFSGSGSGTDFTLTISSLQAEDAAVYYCQDYFRLPLSFGGGTKVEIK,35 nM,6/6
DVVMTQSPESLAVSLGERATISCKIDISELGESRNKNSVAWYQQKAGQPPKLLIYNASTRMEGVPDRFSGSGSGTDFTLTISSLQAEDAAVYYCQQYHRLPLSFGGGTKVEIK,1.3 nM,6/6
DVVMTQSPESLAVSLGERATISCKITDKFLGEGNGRQNIAWYQQKAGQPPKLLIYHAMVAVEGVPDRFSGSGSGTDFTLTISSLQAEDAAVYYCQQYQQLPLAFGGGTKVEIK,1.3 nM,6/6
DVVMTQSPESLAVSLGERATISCKSSQSVLYEYRNKNSVAWYQQKAGQPPKLLIYWASTRASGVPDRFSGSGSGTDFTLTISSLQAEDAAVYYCQQYHRLPLSFGGGTKVEIK,150 nM,4/6
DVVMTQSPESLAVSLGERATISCKLTNVTGTEKVLGNNVAWYQQKAGQPPKLLIYEMETRERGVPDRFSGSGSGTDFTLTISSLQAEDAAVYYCQQYNRLPLSFGGGTKVEIK,8.2 nM,6/6
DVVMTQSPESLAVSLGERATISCHMNHEFYGYWNYDQAVAWYQQKAGQPPKLLIYHESQRLYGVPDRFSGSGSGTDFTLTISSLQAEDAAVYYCQQYSRLPLSFGGGTKVEIK,180 nM,6/6
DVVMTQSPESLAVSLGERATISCKVDFLGLYEQRNKNSVAWYQQKAGQPPKLLIYSASTRESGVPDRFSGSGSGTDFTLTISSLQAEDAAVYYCQQYHRLPLSFGGGTKVEIK,720 pM,6/6
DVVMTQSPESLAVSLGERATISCKFSQSFLYESRNVNSVAWYQQKAGQPPKLLIYGASTRDSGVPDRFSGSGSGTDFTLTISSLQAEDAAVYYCQQYHRLPLSFGGGTKVEIK,650 pM,6/6
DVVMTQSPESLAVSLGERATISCTISQLHNMGTFAINSVAWYQQKAGQPPKLLIYQAEIRNAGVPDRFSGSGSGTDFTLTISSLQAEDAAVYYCQQYDRLPLMFGGGTKVEIK,57 nM,6/6
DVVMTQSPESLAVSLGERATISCMISQSFLIGMKAKNSVAWYQQKAGQPPKLLIYQTSTREAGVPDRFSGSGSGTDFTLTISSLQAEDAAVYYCQQYDRLPLAFGGGTKVEIK,3.3 nM,6/6

Repeated from above, the 2 best binders with a signal in all replicates:

{"VL": "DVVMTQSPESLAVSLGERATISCKCAQGWLYESRNKNNVAWYQQKAGQPPKLLIYNASQREHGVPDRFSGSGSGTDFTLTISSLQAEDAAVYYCQQYHRLPLSFGGGTKVEIK", "apparent Kd": "180 pM", "seen in": "6/6"}
{"VL": "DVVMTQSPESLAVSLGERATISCKMSQSVLYESRNKNNVAWYQQKAGQPPKLLIYGASTRESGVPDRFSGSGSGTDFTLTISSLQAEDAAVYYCQQYHRLPLSFGGGTKVEIK", "apparent Kd": "290 pM", "seen in": "6/6"}